## Curated experimental data: intrinsic clearance values

From the experimental data distributed with OPERA 2.9.

Clint is human hepatic intrinsic clearance in µL/min per million cells; 0 means that no clearance was seen.

SMILES	intrinsic clearance (µL/min/10^6 cells)
CN(C)CCCN1c2ccccc2Sc2ccccc21	22.59
O=C(O)c1ccccc1C(c1ccc(O)cc1)c1ccc(O)cc1	1.85
CCCCCCCCCCCCOC(=O)c1cc(O)c(O)c(O)c1	0
COC(=O)[C@H]1[C@H]2C[C@@H]3c4[nH]c5cc(OC)ccc5c4CCN3C[C@H]2C[C@@H](OC(=O)c2cc(OC)c(OC)c(OC)c2)[C@@H]1OC	12.25
Cc1ccccc1C(OCCN(C)C)c1ccccc1 (stereo not given)	0.723
O=C(O)c1ccccc1C(=O)OCc1ccccc1	0
FC(C(F)(F)F)C(F)(F)F	1
COc1ccc(-c2ccc3c(N4CCOC[C@@H]4C)nc(N4CCOC[C@@H]4C)nc3n2)cc1C(=O)N(C)C	4.27
CCN(CC)c1ccc(C(=O)c2ccccc2C(=O)O)c(O)c1	2
CCCCCCCC(=O)OC	817
[Cl-].c1ccc(C[n+]2cccc3ccccc32)cc1	7.31
O=C(OCCOCCOC(=O)c1ccccc1)c1ccccc1	843
CCO	3.958
CCOC(C)(C)C	0.5997
CN1C(C(=O)Nc2ccccn2)=C(O)c2sccc2S1(=O)=O	1.869
COc1ccc(OC(F)(F)F)cc1CN[C@H]1CCCN[C@H]1c1ccccc1	6.188
Clc1ccccc1C(c1ccccc1)(c1ccccc1)n1ccnc1	77.1
CN(C)c1ccc(C(c2ccccc2)c2ccc(N(C)C)cc2)cc1	0
CN1CCc2cccc3c2[C@H]1Cc1ccc(O)c(O)c1-3.CN1CCc2cccc3c2[C@H]1Cc1ccc(O)c(O)c1-3.Cl.Cl.O	17.4
COCCOC[C@H](CC1(C(=O)N[C@H]2CC[C@@H](C(=O)O)CC2)CCCC1)C(=O)Oc1ccc2c(c1)CCC2	9.898
COC(=O)CCCC(=O)OC	46.3
CN(C)C(=O)C1(N2CCCCC2)CCN(CC[C@@]2(c3ccc(Cl)c(Cl)c3)CN(C(=O)c3ccccc3)CCO2)CC1.Cl	13.6
C[C@]12C=CC(=O)C=C1CC[C@H]1[C@@H]3C[C@@H](O)[C@](O)(C(=O)CO)[C@@]3(C)C[C@H](O)[C@@]12F	2.492
CC(=O)CCc1ccc(O)cc1	29.1
CC(c1cc(C(C)(C)C)cc(C(C)(C)C)c1O)c1cc(C(C)(C)C)cc(C(C)(C)C)c1O	0.383
ClCCl	2.718
CCNc1nc(NC(C)CC)nc(OC)n1 (stereo not given)	6.53
CCCCCCCC	0.6933
c1ccc(CNc2[nH]cnc3ncnc2-3)cc1	0
CCc1ccccc1	2.004
Cc1ccc(C(=O)c2ccccc2)cc1	118
Cc1ccc(N)cc1O	16
CC(C)COC(=O)CCCCC(=O)OCC(C)C	865

A selection of 2 entries from above:

{"smiles": "Cc1ccc(C(=O)c2ccccc2)cc1", "intrinsic clearance (µL/min/10^6 cells)": "118"}
{"smiles": "CC(c1cc(C(C)(C)C)cc(C(C)(C)C)c1O)c1cc(C(C)(C)C)cc(C(C)(C)C)c1O", "intrinsic clearance (µL/min/10^6 cells)": "0.383"}

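The OPERA project collected these measurements from public sources as training and test data for property models. A listed value is a point estimate from one report or more. Method, purity and exact conditions of the single measurements are not given. Where a salt, mixture or single isomer is drawn, the source does not say that exactly this form was tested. Unmarked limits or estimates from the upstream databases cannot be ruled out.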